Experimental data published in ChEMBL document CHEMBL4825694, “Design, synthesis, and biological evaluation of novel sulindac derivatives as partial agonists of PPARγ with potential anti-diabetic efficacy” (Eur J Med Chem, 2021).

Assays:
HepG2 [1] = assay: Hypolipidemic activity against palmitic acid-induced hyperlipidemia in human HepG2 cells assessed as increase in insulin-induced Akt Akt Ser473 phosphorylation at 1 uM pretreated for 24 hrs followed by insulin challenge by Western blot analysis; format: functional, cell-based
3T3-L1 = assay: Induction of adipogenesis in mouse 3T3-L1 cells at 1 uM measured after 48 hrs by oil-O-red staining based inverted microscopic analysis; format: functional, cell-based
Mus musculus = assay: Antidiabetic activity in high fat diet-induced obese C57/B6 mouse model assessed as reduction in glucose level at 4 mg/kg, measured after 30 days by glucose tolerance test; format: functional, organism-based; settings: time 30.0 day
HepG2 [2] = assay: Hypolipidemic activity against palmitic acid-induced hyperlipidemia in human HepG2 cells assessed as increase in insulin-induced Akt phosphorylation at 1 uM pretreated for 24 hrs followed by insulin challenge by Western blot analysis; format: functional, cell-based
HepG2 [3] = assay: Hypolipidemic activity against palmitic acid-induced hyperlipidemia in human HepG2 cells assessed as increase in insulin-induced Akt thr3O8 phosphorylation at 1 uM pretreated for 24 hrs followed by insulin challenge by Western blot analysis; format: functional, cell-based

Measured: Activity

CN(CCOc1ccc(CC2SC(=O)NC2=O)cc1)c1ccccn1 (stereo not given)
active: HepG2 [1] | 3T3-L1 | Mus musculus | HepG2 [2] | HepG2 [3]

Active and inactive are the calls of the source.
